Assay results: patent publication US12440489B2 (priority 2016, dated 2025)

By UniProt entry, the sequences of proteins in these tests, tags left out.
UniProt P31645, whole entry, looked up: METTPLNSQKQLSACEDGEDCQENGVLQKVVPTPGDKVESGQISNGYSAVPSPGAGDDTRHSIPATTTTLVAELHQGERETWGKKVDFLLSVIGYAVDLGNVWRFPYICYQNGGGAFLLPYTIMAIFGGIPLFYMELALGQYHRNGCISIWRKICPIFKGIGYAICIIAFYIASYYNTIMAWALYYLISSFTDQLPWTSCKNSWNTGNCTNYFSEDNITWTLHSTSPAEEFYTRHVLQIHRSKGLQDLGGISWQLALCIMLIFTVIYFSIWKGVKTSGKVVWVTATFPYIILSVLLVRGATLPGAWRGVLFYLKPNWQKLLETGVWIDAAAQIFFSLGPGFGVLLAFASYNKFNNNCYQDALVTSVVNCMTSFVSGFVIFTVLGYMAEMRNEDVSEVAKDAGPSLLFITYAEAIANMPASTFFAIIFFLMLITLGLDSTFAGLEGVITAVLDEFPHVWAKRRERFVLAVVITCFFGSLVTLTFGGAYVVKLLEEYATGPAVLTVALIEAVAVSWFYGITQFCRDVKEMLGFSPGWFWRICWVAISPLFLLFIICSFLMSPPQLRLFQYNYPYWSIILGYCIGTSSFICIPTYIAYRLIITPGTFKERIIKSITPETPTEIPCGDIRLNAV

Tests used:
SERT = SERT (Homo sapiens, UniProt P31645); assay: Receptor binding, SERT
5-HT2 receptor = assay: DOI-induced head twitch model in mice; format: in vivo

Compound: O=C1CN2c3c(cccc3[C@@H]3CN(CCCC(O)c4ccc(F)cc4)CC[C@@H]32)N1 (stereo partly drawn)
- maximum inhibition SERT (in words) (SERT): No inhibition
- EC50 for reducing DOI-induced head twitches (5-HT2 receptor; compound orally 0.5 hr before DOI s.c., twitches counted during 6 min): 2.03 mg/kg, p.o.
- block of DOI head twitch (in words) (5-HT2 receptor; oral): relatively inactive
